# Experimental data: patent US9974792B2, “Methods for treating cancers” (Gilead Sciences, Inc., priority 2013, dated 2018)
# Legend:
# [1] = system: subjects with CLL, FL, lymphoplasmacytoid lymphoma/SLL/marginal zone lymphoma, MCL, or DLBCL; details: N = 145
# Protocol: A phase 2, open-label, single-agent study was completed to evaluate the efficacy, safety, tolerability, and pharmacodynamics of entospletinib in subjects with relapsed or refractory hematologic malignancies.
# Treatment with entospletinib was at a dose of 800 mg twice a day over 28-day cycles under fasted conditions. Fasting was defined as no food or liquids other than water for 2 hours pre- and 1 hour post-dose.
# Secondary end points included tolerability, objective response rate (ORR), duration of response (DOR), time to response, and lymph node response rate. […] Exploratory end points included plasma drug concentrations and pharmacodynamic biomarkers.
# Subjects were allowed to enroll in the study if they had cytopenias due to CLL. Treatment-emergent cytopenias were defined as a cytopenia that worsened in the period from the first dose of study treatment to 30 days after the last dose of study treatment.
# Syk = Syk (Homo sapiens, UniProt P43405); assay: cell-based
compound,measurement,setting,value
"c1cn2cc(-c3ccc4cn[nH]c4c3)nc(Nc3ccc(N4CCOCC4)cc3)c2n1 [compound of formula I, 6-(1H-indazol-6-yl)-N-(4-morpholinophenyl)imidazo[1,2-a]pyrazin-8-amine]","Serious AE: Dehydration, %",[1],(2.1) %
same,EC50,Syk,0.763 µM
